Experimental data as given in US7211395 (dated 2007).

Columns and labels:
[1] = molecular target: T1, human serum albumin (HSA) (human, UniProt P02768); test: FP, PBS
[2] = molecular target: T1, human serum albumin (HSA); test: FP, pH 6.2, no NaCl
[3] = molecular target: T1, human serum albumin (HSA); test: FP, pH 7.4, 0.14 M NaCl
[4] = molecular target: T1, human serum albumin (HSA); test: FP, pH 6.2, 0.14 M NaCl
[5] = molecular target: T1, human serum albumin (HSA); test: FP, pH 7.4, 0.14 M NaCl, 0.1% caprylate
[6] = molecular target: T1, human serum albumin (HSA); test: FP

Binder GDNRECVTMWPFEQIFCPWPDPGGGK (disulfide cyclic, N-acetyl, C-amide, fluorescein) [DX-999] has a Kd [1] of 12 µM.

AEGTGSFRNCEPWMLRFGCNPRAPEGGGK (disulfide cyclic, N-acetyl, C-amide, fluorescein on Lys) [DX-238] was tested, and the Kd [2] was 4.8 µM, the Kd [3] was 79 µM and the Kd [4] was 61 µM. For the same binder, the Kd [5] was 110 µM.

With AEGTGDFWFCDRIAWYPQHLCEFLGGGK (disulfide cyclic, N-acetyl, C-amide) [DX-236 truncation SEQ 41] the Kd [6] was 9.9 µM.

Work on CDRIAWYPQHLCGGGK (disulfide cyclic, N-acetyl, C-amide) [DX-236 truncation SEQ 43] yielded a Kd [6] of 16 µM.
